Assay results reported in PubChem BioAssay AID504845 (National Center for Advancing Translational Sciences (NCATS), 2011).
The list shows a part of the results, in another mix than the full data. Records with an inconclusive call do not appear. Calls of active or inactive are those of the source. The call rests on the fitted dose curve; in most records, active means well fitted inhibition curve with a large enough effect; inconclusive means small, poorly fitted or top-dose-only effect; inactive means no such curve, though single readings can be large or run the other way.

Chains of the proteins cited; added tags and fusions are not shown.
UniProt P49798, whole entry: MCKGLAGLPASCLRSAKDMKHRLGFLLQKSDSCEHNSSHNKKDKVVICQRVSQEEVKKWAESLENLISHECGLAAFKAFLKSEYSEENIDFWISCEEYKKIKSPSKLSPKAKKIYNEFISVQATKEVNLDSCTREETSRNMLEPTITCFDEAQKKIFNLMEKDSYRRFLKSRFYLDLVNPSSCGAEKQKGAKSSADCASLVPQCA

Molecular target: Regulator of G-protein signaling 4 (Homo sapiens) (UniProt P49798)
Test: Inhibitors of Regulator of G Protein Signaling (RGS) 4: qHTS; further: nearly all actives have a fitted effect of over 75% in size
Conditions: Transcreener GDP fluorescence polarization, RGS4-accelerated GTP hydrolysis; at 114 µM (top of the series)
Description: G-protein-coupled receptors (GPCRs) are well-established targets for drug discovery and development. Members of the "regulator of G-protein signaling" (RGS)-protein superfamily have recently emerged as critical modulators of specific GPCR signaling pathways. […] Combining specific RGS domain inhibitors with existing GPCR agonists should potentiate cellular responses and could also increase the specificity of action of existing therapeutics. Small molecule modulators of RGS domain activity should also have clinical utility in inhibiting or potentiating the actions of endogenous GPCR agonists. In particular, the diversity of RGS proteins with highly localized and dynamically regulated distributions in the human brain makes this family of proteins attractive targets for pharmacotherapy of central nervous system (CNS) disorders such as Parkinson's disease, schizophrenia, and anxiety. […]
Two microliters of 500nM (2x working concentration) is dispensed into black medium-binding solid-bottom Kalypsys plates. […] An initial fluorescent polarization read (620 nm/688 nm) is performed on the Envision before the plate is incubated for 90 minutes at 30 deg C at a relative humidity of 80%. The plate is once more centrifuged at 1000 RPM for 15 seconds and another Envision fluorescent polarization (620 nm/688 nm) read is carried out.
On the % scale 0 is the no-effect control and ±100 the full control effect.

SMILES	activity change, negative = inhibition
CCC(=O)N(c1ccccc1)C1(COC)CCN(CCc2cccs2)CC1	inactive: 8.54%
CCC(=O)N(c1ccccc1)C1(COC)CCN(CCn2nnn(CC)c2=O)CC1	inactive: 0.0872%
